IC50 data for one compound are collected here from patent EP2913333A1 (priority 2014, dated 2015).

For one assay, the target named is T1, E. feacalis DltA (Enterococcus faecalis, UniProt Q830N0).
T1 sequence (Q830N0 1-506): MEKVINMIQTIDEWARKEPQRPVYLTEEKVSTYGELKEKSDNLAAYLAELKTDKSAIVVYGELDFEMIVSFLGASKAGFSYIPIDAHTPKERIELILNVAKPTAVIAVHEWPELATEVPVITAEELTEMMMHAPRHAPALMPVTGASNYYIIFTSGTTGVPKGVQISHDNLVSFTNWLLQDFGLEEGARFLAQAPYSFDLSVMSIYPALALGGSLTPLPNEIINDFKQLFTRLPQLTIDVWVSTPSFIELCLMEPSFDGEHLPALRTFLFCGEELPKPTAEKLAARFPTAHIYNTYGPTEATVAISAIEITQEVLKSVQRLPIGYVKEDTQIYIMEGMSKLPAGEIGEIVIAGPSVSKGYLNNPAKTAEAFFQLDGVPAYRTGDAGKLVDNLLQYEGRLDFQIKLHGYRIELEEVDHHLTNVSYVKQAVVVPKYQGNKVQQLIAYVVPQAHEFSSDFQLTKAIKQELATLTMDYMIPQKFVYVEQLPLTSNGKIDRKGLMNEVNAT
Kind of assay: biochemical. How it is done:
(§1) To this end, recombinant proteins DltA were expressed and purified after cloning of the genes of S. aureus, E. faecalis, E. faecium and S. agalactiae as described thereafter. The capacity of the compounds of the invention to inhibit DltA enzymatic activity was assessed using the DltA assays as described below: • The dltA gene was amplified from chromosomal DNA of S. aureus, E. faecalis, E. faecium and S. agalactiae and introduced into E. coli BL21 (Invitrogen, Carlsbad, CA) following manufacturer's instruction. Bacteria were grown at 37°C under aerobic conditions and isopropyl-beta-D-thiogalactopyranoside (IPTG) was added to 0.5-1 mM when OD600 of the bacterial culture had reached 0.5. After a further incubation for 3 hours, cells were harvested by centrifugation. Purification of the recombinant DltA protein was performed by affinity chromatography on nickel-nitrilotriacetic acid (Ni-NTA) column following manufacturer's instructions (Qiagen). Fractions containing recombinant DltA protein were adjusted to 50% glycerol and stored at -20°C until use.
(§2) The binding potency of the inhibitors against DltA enzyme was assessed by IC50 determination in an in vitro DltA activity assay. […] Luminescence intensity was immediately measured on a Fluostar Optima (BMG) (excitation 360nm, emission 520nm) and converted into inhibition percentages. […]

In a further assay the target is T2, S. Agalactiae DltA (Streptococcus agalactiae serotype III, UniProt Q8VM67).
T2 sequence (Q8VM67 1-511): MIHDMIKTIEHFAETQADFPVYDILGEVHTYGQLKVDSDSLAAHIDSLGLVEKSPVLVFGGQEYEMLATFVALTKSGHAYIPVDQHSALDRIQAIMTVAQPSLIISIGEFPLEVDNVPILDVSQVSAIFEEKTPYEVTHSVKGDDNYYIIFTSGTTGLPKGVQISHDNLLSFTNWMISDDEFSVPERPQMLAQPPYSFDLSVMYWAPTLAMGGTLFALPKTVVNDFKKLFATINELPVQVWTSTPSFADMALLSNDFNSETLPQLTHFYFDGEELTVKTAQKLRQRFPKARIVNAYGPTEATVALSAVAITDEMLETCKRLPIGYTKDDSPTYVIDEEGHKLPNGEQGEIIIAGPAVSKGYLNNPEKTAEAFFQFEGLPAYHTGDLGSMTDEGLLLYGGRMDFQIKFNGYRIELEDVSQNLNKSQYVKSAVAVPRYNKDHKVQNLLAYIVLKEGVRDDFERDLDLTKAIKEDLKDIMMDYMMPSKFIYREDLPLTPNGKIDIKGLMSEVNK
Put plainly: biochemical. How it is done: as §1, §2

As a reminder, the IC50 is the midpoint of a concentration-inhibition curve. Read a high IC50 as weaker potency.

For `CC1CCCC(n2cnc3cc(-c4sc(N5CC[C@H](CO)C5)c5c(=O)[nH]cnc45)ccc32)C1` (some centres unmarked) [Example 48], the values for the 50% inhibitory concentration (IC50) against E. feacalis DltA and against S. Agalactiae DltA were 46 nM and 3700 nM, respectively.
